This note sets out measurements from patent US12048700B2, “Crystalline monosodium salt of 5-methyl-(6S)-tetrahydrofolic acid” (Merck Patent GmbH, priority 2017, dated 2024).

The conditions of series [1]: for time the solution remains clear: r.t.; for kinetic solubility in water: room temperature, purified/de-ionized water, vigorously agitated and briefly sonicated, monosodium salt. The procedure:
2.535 ml of purified/de-ionized water (for instance water for chromatography) is added to the solid using an adjustable volumetric pipette. The mixture is vigorously agitated at room temperature and briefly sonicated.

A short description of series [2]: physchem. The settings on record: water, thermodynamic from solid, room temperature, suspension stirred 30 minutes with excess solid.
For series [3] the following is noted: 25° C./60% rh. Here is the method: The content of 5-methyl-(6S)-tetrahydrofolic acid remaining in the samples was measured by HPLC at periodic intervals (% w/w). The content of 5-methyl-(6S)-tetrahydrofolic acid remaining was also compared to the initial value at the time of preparation (% rel.). Additionally the content of the pyrazino-s-triazine derivative of 4α-hydroxy-5-methyl-THF (MeFox), a major degradation product, was measured by HPLC at periodic intervals and disclosed as absolute values (% w/w).

The conditions of series [4]: 40° C./75% rh. The procedure:
The content of 5-methyl-(6S)-tetrahydrofolic acid remaining in the sample was measured by HPLC at periodic intervals (% w/w). The content of 5-methyl-(6S)-tetrahydrofolic acid remaining was also compared to the initial value at the time of preparation (% rel.). Additionally the content of the pyrazino-s-triazine derivative of 4α-hydroxy-5-methyl-THF (MeFox), a major degradation product, was measured by HPLC at periodic intervals and disclosed as absolute values (% w/w).

Like-named read-outs stand apart in the source and are kept apart here.

As a reminder, the solubility is the dissolved amount per volume that the medium holds. Turning to `CN1c2c(nc(N)[nH]c2=O)NC[C@@H]1CNc1ccc(C(=O)N[C@@H](CCC(=O)[O-])C(=O)O)cc1.[Na+]` [5-methyl-(6S)-tetrahydrofolic acid monosodium salt], the “time the solution remains clear” value is reported as “more than 20 hours” in series [1] (23.8 mg in 2.38 ml water) and “several hours” in series [1] (62.3 mg in 4.15 ml water). Moreover, the entries for the “kinetic solubility in water” value in series [1] (listed as crystalline 5-methyl-(6S)-tetrahydrofolic acid monosodium salt), in series [1] (listed as crystalline MTHF monosodium salt) and in series [1] (listed as crystalline monosodium salt) were “greater than 10 mg per 1 ml of water”, “greater than 25 mg per 1 ml of water” and “greater than 15 mg per 1 ml of water”, respectively. The solubility at 30 min was 9600 µg/mL in series [2] (solubility in water expressed as equivalent of the calcium salt) and 9300 µg/mL in series [2] (solubility in water).

Take `CN1c2c([nH]c(N)nc2=O)NC[C@@H]1CNc1ccc(C(=O)N[C@@H](CCC(=O)[O-])C(=O)[O-])cc1.[Ca+2]` [calcium salt of 5-methyl-(6S)-tetrahydrofolic acid]: the “5-methyl-(6S)-tetrahydrofolic acid remaining relative to initial value” in series [3] (0 months) is reported as 100.0 % rel; in series [3] (3 months), 97.9 % rel; in series [3] (6 months), 96.3 % rel; in series [3] (9 months), 97.3 % rel; in series [3] (12 months) it was 96.5 % rel; in series [4] (0 months), 100.0 % rel. Further, the “5-methyl-(6S)-tetrahydrofolic acid remaining relative to initial value” in series [4] (3 months) worked out at 97.2 % rel; in series [4] (6 months) it was 96.6 % rel; in series [4] (9 months), 97.6 % rel; in series [4] (12 months), 96.3 % rel. In addition, the “Pyrazino-s-triazine derivative of 4α-hydroxy-5-methyl-THF (MeFox), major degradation product” value in series [3] (0 months) was determined as 0.20 % w/w; in series [3] (3 months), 0.84 % w/w; in series [3] (6 months) it was 0.90 % w/w; in series [3] (9 months), 0.85 % w/w; in series [3] (12 months) it was 0.86 % w/w; in series [4] (0 months), 0.20 % w/w. Also, the “Pyrazino-s-triazine derivative of 4α-hydroxy-5-methyl-THF (MeFox), major degradation product” value amounted to 1.01 % w/w in series [4] (3 months), 0.96 % w/w in series [4] (6 months), 0.93 % w/w in series [4] (9 months) and 0.95 % w/w in series [4] (12 months).
